Measurements: ChEMBL document CHEMBL1949555, “Piperazine-2,3-dicarboxylic acid derivatives as dual antagonists of NMDA and GluK1-containing kainate receptors” (J Med Chem, 2012)

Experiments:
[1] = species: Rattus norvegicus; experiment: Selectivity ratio of Ki(app) for rat recombinant GluN1/GluN2A receptor to Ki(app) for rat recombinant GluN1/GluN2D receptor
Outline: (§1)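 Rat GluN1a is co-expressed with GluN2A, 2B, 2C or 2D in Xenopus oocytes and recorded by two-electrode voltage clamp at −60 mV. Buffer is 116 mM NaCl, 2 mM KCl, 0.3 mM BaCl2, 5 mM HEPES, pH 7.4. The plateau response to bath-applied 10 μM L-glutamate plus 10 μM glycine is measured. Apparent Ki is IC50/(1+[agonist]/EC50).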

[2] = tested on: Kainate receptors (Rattus norvegicus); experiment: Displacement of [3H]-Kainate from native kainate receptors in rat brain homogenate; conditions: concentration not given here
[3] = species: Rattus norvegicus; experiment: Selectivity ratio of Ki(app) for rat recombinant GluN1/GluN2B receptor to Ki(app) for rat recombinant GluN1/GluN2D receptor; outline: as §1

SMILES	Ratio Ki(app) [1]	inhibition [2] [%]	Ratio Ki [1]	Ratio Ki [3]
O=C(O)[C@H]1NCCN(C(=O)c2ccc(C#Cc3ccccc3)cc2)[C@H]1C(=O)O (relative stereo)	10	10		
O=C(O)[C@H]1NCCN(C(=O)c2ccc3cc(-c4ccccc4)ccc3c2)[C@H]1C(=O)O (relative stereo)			> 10	> 10
